A short description of data set [1]: Tensile strength of gamma irradiated cartridges, initially and after storage at 37° C. Conditions: initially after irradiation and after 3 and 8 months storage at 37° C. The data set is classed as physicochemical. As for the experimental part:
Approximately 15-20 cartridges of each formulation were prepared and gamma irradiated at 10-11 kGy. The tensile strength of five cartridges from each formulation was measured initially. The remaining cartridges were stored at 37° C. and tested for tensile strength again at 3 and 8 months.

The conditions of data set [2]: cited from earlier work.

The text below walks through data of patent US9120249B2, “Implant device release agents and methods of using same” (ENDO PHARMACEUTICALS SOLUTIONS INC., priority 2007, dated 2015).

In the case of “D-α-tocopheryl (Vitamin E) polyethylene glycol 1000 succinate [Vitamin E TPGS]”, in data set [1], the “tensile strength of cartridges, in words” value is listed as “highest tensile strength”. Moreover, the CMC in data set [2] (critical micelle concentration) is given as 0.1 mM. Besides, the HLB in data set [2] (hydrophilic-lipophilic balance) was 13.
